Experiments:
Assay type in all cases: cell-based
[1] = target: Muscarinic acetylcholine receptor M2 (Homo sapiens, UniProt P08172); experiment: Displacement of [3H]-NMS from wild-type human muscarinic M2 receptor expressed in Flp-In-CHO cells by liquid scintillation counting
Method in brief: (§1)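 Separated by rapid filtration, counted by liquid scintillation. Means ± SEM of 3−4 independent experiments in triplicate; unpaired two-tailed t test versus wild type.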

Sequences of proteins named here, by UniProt entry; tags and fusion partners are left off.
UniProt P08172, whole entry: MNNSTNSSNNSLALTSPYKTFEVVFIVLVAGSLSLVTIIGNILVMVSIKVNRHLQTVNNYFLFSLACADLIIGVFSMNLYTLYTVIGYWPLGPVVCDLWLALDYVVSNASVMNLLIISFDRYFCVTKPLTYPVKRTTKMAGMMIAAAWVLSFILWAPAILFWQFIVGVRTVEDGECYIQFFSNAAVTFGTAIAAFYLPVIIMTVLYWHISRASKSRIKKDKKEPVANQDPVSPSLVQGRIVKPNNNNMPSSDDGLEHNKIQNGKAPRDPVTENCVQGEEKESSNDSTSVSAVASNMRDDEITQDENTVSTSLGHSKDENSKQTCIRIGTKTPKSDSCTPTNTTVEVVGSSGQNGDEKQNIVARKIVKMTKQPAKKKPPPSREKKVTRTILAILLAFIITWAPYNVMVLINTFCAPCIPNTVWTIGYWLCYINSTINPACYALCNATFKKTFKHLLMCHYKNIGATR
UniProt P08172, whole entry Y104A: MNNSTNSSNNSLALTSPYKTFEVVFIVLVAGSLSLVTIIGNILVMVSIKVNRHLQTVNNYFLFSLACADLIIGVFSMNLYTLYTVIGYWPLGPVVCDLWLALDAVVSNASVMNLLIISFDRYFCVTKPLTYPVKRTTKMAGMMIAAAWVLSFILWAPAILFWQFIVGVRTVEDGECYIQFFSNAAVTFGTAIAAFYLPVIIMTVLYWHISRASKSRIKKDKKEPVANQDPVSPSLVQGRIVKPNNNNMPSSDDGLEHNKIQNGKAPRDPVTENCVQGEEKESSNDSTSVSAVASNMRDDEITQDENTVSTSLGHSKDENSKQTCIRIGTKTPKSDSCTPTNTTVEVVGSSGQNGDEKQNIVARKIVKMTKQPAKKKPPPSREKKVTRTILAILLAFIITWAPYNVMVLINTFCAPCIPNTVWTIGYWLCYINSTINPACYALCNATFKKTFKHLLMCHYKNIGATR
UniProt P08172, whole entry Y177Q: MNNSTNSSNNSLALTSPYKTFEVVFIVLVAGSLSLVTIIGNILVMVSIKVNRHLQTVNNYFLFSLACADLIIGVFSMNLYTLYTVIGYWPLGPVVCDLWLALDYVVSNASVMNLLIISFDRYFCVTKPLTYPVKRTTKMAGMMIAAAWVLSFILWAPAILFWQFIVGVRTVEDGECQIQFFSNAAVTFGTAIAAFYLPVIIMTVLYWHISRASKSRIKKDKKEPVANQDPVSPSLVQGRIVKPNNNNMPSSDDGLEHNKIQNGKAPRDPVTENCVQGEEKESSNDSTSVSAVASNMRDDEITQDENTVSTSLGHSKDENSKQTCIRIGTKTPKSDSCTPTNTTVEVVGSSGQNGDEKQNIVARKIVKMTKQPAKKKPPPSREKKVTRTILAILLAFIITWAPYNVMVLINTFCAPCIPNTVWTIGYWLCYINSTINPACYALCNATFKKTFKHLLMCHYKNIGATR
UniProt P08172, whole entry Y177Q/T423H: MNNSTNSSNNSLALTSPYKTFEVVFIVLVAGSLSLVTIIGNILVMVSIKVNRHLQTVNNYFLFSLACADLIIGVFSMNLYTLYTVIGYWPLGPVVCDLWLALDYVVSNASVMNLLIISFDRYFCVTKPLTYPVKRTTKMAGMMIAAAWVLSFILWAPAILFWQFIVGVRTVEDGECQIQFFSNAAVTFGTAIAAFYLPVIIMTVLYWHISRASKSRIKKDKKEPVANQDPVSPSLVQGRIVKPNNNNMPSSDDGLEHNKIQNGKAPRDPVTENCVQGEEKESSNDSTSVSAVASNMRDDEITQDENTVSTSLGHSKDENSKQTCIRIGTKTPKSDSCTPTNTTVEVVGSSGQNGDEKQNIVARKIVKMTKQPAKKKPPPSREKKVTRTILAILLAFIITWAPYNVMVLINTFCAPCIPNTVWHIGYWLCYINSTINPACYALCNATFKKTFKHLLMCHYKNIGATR
UniProt P08172, whole entry W422A: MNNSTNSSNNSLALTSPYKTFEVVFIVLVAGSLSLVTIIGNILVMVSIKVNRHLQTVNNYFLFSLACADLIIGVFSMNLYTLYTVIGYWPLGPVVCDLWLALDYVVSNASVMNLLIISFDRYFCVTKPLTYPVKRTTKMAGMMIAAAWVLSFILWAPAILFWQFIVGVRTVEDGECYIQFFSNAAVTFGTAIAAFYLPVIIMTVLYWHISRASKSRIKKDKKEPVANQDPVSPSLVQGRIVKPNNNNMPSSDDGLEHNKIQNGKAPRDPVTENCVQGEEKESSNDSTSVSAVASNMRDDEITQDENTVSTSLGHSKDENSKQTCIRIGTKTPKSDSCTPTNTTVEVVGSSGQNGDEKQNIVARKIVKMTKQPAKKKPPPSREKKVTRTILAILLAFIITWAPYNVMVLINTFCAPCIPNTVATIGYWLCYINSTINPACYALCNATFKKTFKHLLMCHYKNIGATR
UniProt P08912, whole entry: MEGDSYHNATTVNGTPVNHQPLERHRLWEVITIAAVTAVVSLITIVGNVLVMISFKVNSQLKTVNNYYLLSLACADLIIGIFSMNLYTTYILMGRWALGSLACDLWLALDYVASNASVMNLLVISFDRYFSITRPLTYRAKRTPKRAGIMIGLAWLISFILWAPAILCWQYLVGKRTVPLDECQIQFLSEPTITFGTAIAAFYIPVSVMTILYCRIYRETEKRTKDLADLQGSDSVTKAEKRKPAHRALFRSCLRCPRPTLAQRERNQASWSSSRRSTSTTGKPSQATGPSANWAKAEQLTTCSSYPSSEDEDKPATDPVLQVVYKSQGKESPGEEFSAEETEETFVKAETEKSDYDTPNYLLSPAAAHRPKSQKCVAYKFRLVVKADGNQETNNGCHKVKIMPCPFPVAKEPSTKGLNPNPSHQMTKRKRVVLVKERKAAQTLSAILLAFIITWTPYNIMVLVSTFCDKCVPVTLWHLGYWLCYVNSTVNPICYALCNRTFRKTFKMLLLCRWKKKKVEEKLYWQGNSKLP

[2] = target: Muscarinic acetylcholine receptor M2 (Homo sapiens, UniProt P08172, Y104A); experiment: Displacement of [3H]-NMS from human muscarinic M2 Y104A mutant expressed in Flp-In-CHO cells by liquid scintillation counting
Method in brief: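 Bound separated either by rapid filtration or, in some cases, by centrifugation at 21000g, 15 °C, 20 min. Pellet washed once, resuspended, counted by liquid scintillation. Triplicate determinations.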

[3] = target: Muscarinic acetylcholine receptor M2 (Homo sapiens, UniProt P08172, Y177Q); experiment: Displacement of [3H]-NMS from human muscarinic M2 Y177Q mutant expressed in Flp-In-CHO cells by liquid scintillation counting; method in brief: as §1
[4] = target: Muscarinic acetylcholine receptor M2 (Homo sapiens, UniProt P08172, T423H/Y177Q); experiment: Displacement of [3H]-NMS from human muscarinic M2 Y177Q/T423H mutant expressed in Flp-In-CHO cells by liquid scintillation counting; method in brief: as §1
[5] = target: Muscarinic acetylcholine receptor M2 (Homo sapiens, UniProt P08172, W422A); experiment: Displacement of [3H]-NMS from human muscarinic M2 W422A mutant expressed in Flp-In-CHO cells by liquid scintillation counting; method in brief: as §1
[6] = target: Muscarinic acetylcholine receptor M5 (Homo sapiens, UniProt P08912); experiment: Displacement of [3H]-NMS from wild-type human muscarinic M5 receptor expressed in CHO-K1 cells by liquid scintillation counting; method in brief: as §1

CN1[C@@H]2C[C@@H](OC(=O)[C@H](CO)c3ccccc3)C[C@H]1[C@@H]1O[C@@H]12 [SCOPOLAMINE]
Ki [1]: 3.02 nM | Ki [2]: 28.8 nM | Ki [3]: 3.31 nM | Ki [4]: 3.55 nM | Ki [5]: 3.31 nM | Ki [6]: 1.29 nM
